The record followed here is patent US7851630B2, “Hydronopol substituted benzimidazolone and quinazolinone derivatives as agonists on human ORL1 receptors” (dated 2010).

By UniProt entry, the sequences of proteins in these tests, tags left out. Where a name states a change or a piece, a line headed by the entry shows the natural chain unless it says otherwise.
UniProt P41146: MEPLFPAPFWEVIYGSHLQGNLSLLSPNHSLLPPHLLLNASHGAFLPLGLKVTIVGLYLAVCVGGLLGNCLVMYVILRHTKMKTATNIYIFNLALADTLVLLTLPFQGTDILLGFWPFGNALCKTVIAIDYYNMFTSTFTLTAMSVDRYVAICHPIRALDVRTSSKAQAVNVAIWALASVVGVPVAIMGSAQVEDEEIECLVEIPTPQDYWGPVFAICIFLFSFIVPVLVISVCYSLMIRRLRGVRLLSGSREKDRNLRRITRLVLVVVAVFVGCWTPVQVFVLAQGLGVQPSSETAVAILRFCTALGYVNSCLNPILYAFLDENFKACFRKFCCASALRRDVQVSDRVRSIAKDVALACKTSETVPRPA

The subject of assay [1] is conditioned ultrasonic distress vocalisation. Particulars: intraperitoneal administration.
For the next assay, the target named is ORL1 receptor (Homo sapiens, UniProt P41146). Description: In vitro ORL1 receptor agonism, cAMP assay.

`CC1(C)[C@H]2CC[C@@H](CCN3CCC(N4C(=O)NCc5ccccc54)CC3)[C@@H]1C2`: the “In vivo agonism C.U.D.V. i.p. ED50” value in assay [1] is 7.4 mg/kg. In addition, at ORL1 receptor, the “In vitro agonism cAMP assay pEC50” value is recorded as 8.5.
